Assay results from PubChem BioAssay AID588649 (The Scripps Research Institute Molecular Screening Center, 2011).
The entries are a selection whose mix differs from that of the whole data set. Active and inactive are the calls of the source. Cut-off read from the data, not from the text of the source: active = inhibition above about 40%; inactive = the rest.

Test system: Fam108b (ABHD17B) [Mus musculus]
Assay: mouse ABHD17B hydrolase inhibitors – biochemical, gel-based ABPP, soluble recombinant form, HTS hits, late-stage follow-up (AID 588649)
Details: fluorophosphonate probe, at 20 µM, stronger effect = higher value

## CN(C)C(=O)c1cc([N+](=O)[O-])cc2c1-c1c(cc([N+](=O)[O-])cc1[N+](=O)[O-])C2=O
  inhibition: inactive: 35%
